Laboratory results taken from patent US11560358B2, “Resveratrol-piperazine co-crystals” (LETAVIS AB, priority 2018, dated 2023).

What was measured:
[1] = 40° C., 75% relative humidity for at least 1 week
Text: The small intestine is made up by duodenum, jejunum and ileum. In humans, the pH is rapidly changes from highly acidic in the stomach to about pH 6 in the duodenum. The pH gradually increases in the small intestine from pH 6 to about pH 7.4 in the terminal ileum.

[2] = Visual observation of equal powder amounts suspended in water
[3] = Solubility and dissolution rate of curcumin and curcumin-piperazine co-crystal, Form 2, in water (μDISS Profiler); settings: 120 minutes
Method: In situ dissolution experiments were performed with a μDISS Profiler apparatus (pION Inc., MA, USA). The system consists of an integrated diode array spectrophotometer connected to a fiber optic UV probe located directly in the reaction vessel (20 ml scintillation vial) and measures the concentration as a function of time, without filtering the solution. Measurement of the dissolution kinetics was carried out at 220 nm and 270 nm, which are optimal for the UV detection of resveratrol and […], respectively. The concentrations of the compounds in the dissolution media (water, buffer pH=4, pH=6) were calculated by means of a standard curve.

curcumin-piperazine co-crystal, Form 1
physical stability on storage under accelerated conditions [1]: physically stable | aqueous solubility by visual observation [2]: increased aqueous solubility compared to curcumin

curcumin-piperazine co-crystal, Form 2
solubility in water ([3]; 1 mg/ml in water, FIG. 15, FIG. 16): significantly increased solubility in comparison with curcumin | change of solubility over time ([3]; water, FIG. 15): diminish gradually over time
